From PubChem BioAssay AID588358 (NMMLSC, 2011)
The list shows a part of the results, in another mix than the full data. Active and inactive are the calls of the source.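 Rule for the calls: active = binding more than 3 SD below its plate's average and above zero; inconclusive = below that plate limit but binding exactly zero; inactive = the rest.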

The chains behind the UniProt entries cited, without tags or fusion partners.
UniProt P32926, whole entry, looked up: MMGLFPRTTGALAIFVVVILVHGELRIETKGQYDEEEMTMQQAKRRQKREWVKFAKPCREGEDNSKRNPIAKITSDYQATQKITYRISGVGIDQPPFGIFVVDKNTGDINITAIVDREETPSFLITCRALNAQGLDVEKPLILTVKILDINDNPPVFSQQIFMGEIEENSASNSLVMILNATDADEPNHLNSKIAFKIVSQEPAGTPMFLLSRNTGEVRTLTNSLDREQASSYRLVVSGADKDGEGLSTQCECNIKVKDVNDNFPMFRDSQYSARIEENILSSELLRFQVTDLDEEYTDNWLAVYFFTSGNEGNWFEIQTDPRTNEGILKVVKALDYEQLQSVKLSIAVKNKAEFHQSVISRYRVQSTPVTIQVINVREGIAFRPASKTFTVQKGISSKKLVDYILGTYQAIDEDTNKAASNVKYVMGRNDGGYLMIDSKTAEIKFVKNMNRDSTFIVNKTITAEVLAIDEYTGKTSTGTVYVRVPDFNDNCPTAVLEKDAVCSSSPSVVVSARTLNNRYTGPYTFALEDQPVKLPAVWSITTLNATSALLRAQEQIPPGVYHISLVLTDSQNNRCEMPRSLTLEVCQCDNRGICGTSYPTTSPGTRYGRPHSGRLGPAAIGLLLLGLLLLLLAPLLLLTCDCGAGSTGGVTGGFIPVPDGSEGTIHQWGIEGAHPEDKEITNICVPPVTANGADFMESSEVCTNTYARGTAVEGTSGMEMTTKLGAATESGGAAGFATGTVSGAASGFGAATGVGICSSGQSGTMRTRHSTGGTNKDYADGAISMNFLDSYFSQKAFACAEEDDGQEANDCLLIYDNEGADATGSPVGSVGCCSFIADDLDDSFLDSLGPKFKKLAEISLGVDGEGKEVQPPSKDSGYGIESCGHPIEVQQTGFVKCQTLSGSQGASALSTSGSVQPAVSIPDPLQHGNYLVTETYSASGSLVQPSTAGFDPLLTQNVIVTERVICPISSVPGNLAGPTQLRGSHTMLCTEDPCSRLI

Target: Desmoglein-3 (Homo sapiens) (UniProt P32926)
Assay: blockers of anti-DSG3 scFv binding – biochemical, bead-based, flow cytometry, scFv-GFP, primary screen (AID 588358);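 note: hits lower antibody fragment binding to DSG3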
Settings: DSG3-coupled beads, at 10 µM, hits give low values

| Compound | binding (percent of control) |
| --- | --- |
| COc1ccc(OP(C)(=O)Nc2cccc(F)c2)cc1 (stereo not drawn) | inactive: 102% |
| COc1ccccc1OP(C)(=O)Nc1cc(Cl)ccc1C (stereo not drawn) | inactive: 104% |
| CCOC(=O)c1ccc(NP(C)(=O)Oc2ccccc2)cc1 (stereo not drawn) | inactive: 102% |
| Cc1ccc(NP(C)(=O)Oc2ccccc2)c(C)c1 (stereo not drawn) | inactive: 102% |
| COc1ccccc1OP(C)(=O)Nc1ccc(C)cc1 (stereo not drawn) | inactive: 102% |
| Cc1cccc(C)c1OP(C)(N)=O (stereo not drawn) | inactive: 73% |
| CC(C)(C)c1ccc(OP(C)(=O)Nc2ccc(SC(F)(F)F)cc2)cc1 (stereo not drawn) | inactive: 90.5% |
| O=[N+]([O-])c1ccc2c(c1)C=Nc1ccccc1O2 | inactive: 93.7% |
| O=[N+]([O-])c1cc([N+](=O)[O-])c(Nc2cccnc2)c([N+](=O)[O-])c1 | inactive: 107% |
| CCN(CC)CCCOC(=O)C(O)(c1ccccc1)c1ccccc1 | inactive: 101% |
| CP(=O)(Nc1ccccn1)Oc1ccc(Cl)cc1 (stereo not drawn) | inactive: 89.1% |
| CCOP(C)(=S)SCC(=O)NC(C)C(=O)O (stereo not drawn) | inactive: 106% |
| CCOC(=O)c1ccc(NP(C)(=O)Oc2ccc(OC)cc2)cc1 (stereo not drawn) | inactive: 109% |
| O=[N+]([O-])c1cc([N+](=O)[O-])c(O)c([N+](=O)[O-])c1.c1ccc(Oc2ccncc2)cc1 | inactive: 105% |
| Cc1cc(C)cc(OP(C)(=O)Nc2ccc(SC(F)(F)F)cc2)c1 (stereo not drawn) | inactive: 99.1% |
| CP(=O)(NC(=O)Nc1ccccc1)Oc1ccccc1 (stereo not drawn) | inactive: 100% |
| CCc1ccc(OP(C)(=O)N2CCN(c3ccc([N+](=O)[O-])cc3)CC2)cc1 (stereo not drawn) | inactive: 103% |
| CP(=O)(Oc1ccccc1)OC(c1ccccc1)C(F)(F)F (stereo not drawn) | inactive: 99.2% |
| Cc1ccc(Nc2c([N+](=O)[O-])cc([N+](=O)[O-])cc2[N+](=O)[O-])cc1 | inactive: 94.4% |
| Cc1cccc(C)c1OP(C)(=O)Nc1ccc(SC(F)(F)F)cc1 (stereo not drawn) | inactive: 111% |
| CP(=O)(Nc1ccc(SC(F)(F)F)cc1)Oc1ccc(Cl)cc1 (stereo not drawn) | inactive: 98% |
| COc1ccccc1OP(C)(=O)Nc1ccccc1 (stereo not drawn) | inactive: 106% |

| Compound | binding (percent of control) |
| --- | --- |
| CP(=O)(Nc1ccccc1Br)Oc1ccccc1 (stereo not drawn) | inactive: 98% |
| CP(=S)(Nn1cnnc1)Oc1ccccc1 (stereo not drawn) | inactive: 103% |
| CCCOc1ccc(NP(C)(=O)Oc2ccc(Cl)cc2)cc1 (stereo not drawn) | inactive: 98.7% |
| CP(=O)(Nc1ccc(SC(F)(F)F)cc1)Oc1ccccc1 (stereo not drawn) | inactive: 130% |
| COc1ccccc1OP(C)(=O)Nc1c(C)cccc1C (stereo not drawn) | inactive: 99.2% |
| CN1CCCCC1COC(=O)C1(O)c2ccccc2CCc2ccccc21 (stereo not drawn) | inactive: 104% |
| CCOC(=O)C(CC)C1=NC(C)(C)Cc2ccccc21.O=[N+]([O-])c1cc([N+](=O)[O-])c(O)c([N+](=O)[O-])c1 (stereo not drawn) | inactive: 98.7% |
| CC1=C2N=C(C=C3N=C(C(C)=C4[N-][C@@](C)([C@@H]5N=C1[C@](C)(CCC(=O)NC[C@@H](C)OP(=O)([O-])O[C@H]1[C@@H](O)[C@@H](n6cnc7cc(C)c(C)cc76)O[C@@H]1CO)[C@H]5CC(N)=O)[C@@](C)(CC(N)=O)[C@@H]4CCC(N)=O)[C@@](C)(CC(N)=O)[C@@H]3CCC(N)=O)C(C)(C)[C@@H]2CCC(N)=O.[C-]#N.[Co+3] | inactive: 102% |
| O=[N+]([O-])c1cc([N+](=O)[O-])c(Nc2nnnn2CCO)c([N+](=O)[O-])c1 | inactive: 94.4% |
| Cc1nc2ccc3ccccc3c2s1.O=[N+]([O-])c1cc([N+](=O)[O-])c(O)c([N+](=O)[O-])c1 | inactive: 103% |
| O=[N+]([O-])c1cc([N+](=O)[O-])c(-c2cnn(-c3ccccc3)c2)c([N+](=O)[O-])c1 | inactive: 106% |
| O=[N+]([O-])c1cc([N+](=O)[O-])c(-n2nnc3ccccc32)c([N+](=O)[O-])c1 | inactive: 102% |
| Cc1cc(C)cc(OP(C)(=O)Nc2ccccn2)c1 (stereo not drawn) | inactive: 96.5% |
| CP(=O)(Nc1cccc(Br)c1)Oc1ccccc1 (stereo not drawn) | inactive: 110% |
| Cc1ccc(C)c(NP(C)(=O)Oc2ccccc2)c1 (stereo not drawn) | inactive: 105% |
| Cc1cc(C)cc(OP(C)(=O)Nc2ccc(C)cc2C)c1 (stereo not drawn) | inactive: 108% |
| CCOC(=O)c1ccc(NP(C)(=O)Oc2cc(C)cc(C)c2)cc1 (stereo not drawn) | inactive: 94.3% |
| COc1ccccc1OP(C)(=O)Nc1cccc(Br)c1 (stereo not drawn) | inactive: 95.2% |
| O=C(O)c1cccc(Nc2c([N+](=O)[O-])cc([N+](=O)[O-])cc2[N+](=O)[O-])c1 | inactive: 94.1% |
| CCCCCOc1ccc(NP(C)(=O)Oc2ccc(Cl)cc2Cl)cc1 (stereo not drawn) | inactive: 99.2% |
| O=[N+]([O-])c1cc([N+](=O)[O-])c(OC2CCCCC2O)c([N+](=O)[O-])c1 (stereo not drawn) | inactive: 113% |
